Measurements: paper PMC10160475, “Biological evaluation and in silico studies of novel compounds as potent TAAR1 agonists that could be used in schizophrenia treatment” (Frontiers in Pharmacology, 2023)

Test system: catalepsy
Assay: Catalepsy assay (bar test)
Assay type: in vivo, C57BI/6J mice
Conditions: risperidone 1, 5 mg/kg p.o., 30 and 90 min after administration
Procedure: Twenty-four male C57BI/6J mice were divided randomly into four groups. Mice were placed in a room 1 h before testing. They were administered vehicle, risperidone (1 or 5 mg/kg, p.o.; 0.1 ml/10 g), 50A (100 mg/kg, p.o.; 0.1 ml/10 g), or 50B (100 mg/kg, p.o.; 0.1 ml/10 g). The front paws of mice were placed on a horizontal metal bar raised 2 inches above a Plexiglas™ platform 30 min and 90 min after administration. The time the front paws of mice were placed on the platform was recorded at ≤30 s per trial. Each test was repeated three times.

How did the “Time mice spent holding bars (catalepsy)” value turn out when `Cc1nc2n(c(=O)c1CCN1CCC(c3noc4cc(F)ccc34)CC1)CCCC2` [risperidone, reference compound] was run?
Its value is “increased the time mice spent holding bars significantly”.
